Reference: patent EP2330125A2

The chains behind the UniProt entries cited, without tags or fusion partners. Residues count along the entry.
UniProt P32301, 22-463 limits assumed: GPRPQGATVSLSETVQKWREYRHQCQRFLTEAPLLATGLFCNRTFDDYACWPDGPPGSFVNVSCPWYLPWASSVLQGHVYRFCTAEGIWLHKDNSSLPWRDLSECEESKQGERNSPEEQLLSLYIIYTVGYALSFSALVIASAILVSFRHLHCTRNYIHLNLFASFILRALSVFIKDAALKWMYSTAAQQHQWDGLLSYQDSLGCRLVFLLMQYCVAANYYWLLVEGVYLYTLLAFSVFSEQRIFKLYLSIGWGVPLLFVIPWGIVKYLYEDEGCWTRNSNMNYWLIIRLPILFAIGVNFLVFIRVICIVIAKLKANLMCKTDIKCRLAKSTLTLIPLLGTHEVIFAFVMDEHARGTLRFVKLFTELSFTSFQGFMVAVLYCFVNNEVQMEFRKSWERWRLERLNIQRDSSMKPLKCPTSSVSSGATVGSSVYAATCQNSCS
UniProt P49146, whole entry: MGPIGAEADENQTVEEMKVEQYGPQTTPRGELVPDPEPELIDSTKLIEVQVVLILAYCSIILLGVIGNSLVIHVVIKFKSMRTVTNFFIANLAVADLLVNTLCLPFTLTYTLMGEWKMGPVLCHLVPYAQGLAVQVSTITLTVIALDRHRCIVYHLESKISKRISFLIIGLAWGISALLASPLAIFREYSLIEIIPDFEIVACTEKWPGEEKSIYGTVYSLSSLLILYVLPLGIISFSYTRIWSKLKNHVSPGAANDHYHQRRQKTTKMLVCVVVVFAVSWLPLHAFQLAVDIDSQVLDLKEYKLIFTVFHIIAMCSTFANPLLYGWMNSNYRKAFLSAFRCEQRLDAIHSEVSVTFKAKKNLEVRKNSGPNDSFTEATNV

Experiments:
[1] = biological target: calcitonin receptor; test: cell-based or functional assay
[2] = biological target: GLP-1 receptor (UniProt P32301); test: [125I]GLP-1 displacement, RINm5F membranes
[3] = biological target: amylin receptor (rat); test: 125I-amylin displacement, rat nucleus accumbens membranes
[4] = biological target: calcitonin receptor; test: calcitonin receptor binding assay
[5] = biological target: GLP-1 receptor (UniProt P32301); test: cell-based or functional assay
[6] = biological target: neuropeptide Y2 receptor (UniProt P49146); test: [125I]-human PYY displacement, SK-N-BE membranes

“Exendin-4(1-28)-betaAla-betaAla-Amylin(1-7)-11,18Arg-sCT(8-27)-Amylin(33-37) (peptide)” was tested, and the CT cyclase [1] was 7.8, the Receptor Binding [2] was 0.3 and the Receptor Binding Assay [2] was 0.3. For the same substance, the Receptor Binding [3] was 0.2, the Receptor Binding Assay [3] was 0.2 and the Receptor Binding [4] was 0.1. For the same substance, the Receptor Binding Assay [4] was 0.1.

In the case of “Exendin-4-(1-28)-bAla-bAla-Rat Amylin, amide (peptide)”, the CT cyclase [1] is reported as 108 and the GLP1 cyclase [5] is reported as 5.8.

“exendin-4(1-28)-βAla-βAla-PYY(25-36) (peptide)” showed an IC50 [2] of 0.16 nM and an IC50 [6] of 7.8 nM.

For “exendin-4(1-28)-βAla-βAla-PYY(31-36) (peptide)”, the IC50 [2] was 0.19 nM and the IC50 [6] was 1000 nM.
